How the values were obtained:
[1] = tested on: Raji; assay: Antiproliferative activity against human Raji cells assessed as reduction in cell growth incubated for 48 hrs by MTS assay; type: functional, cell-based
[2] = tested on: Ramos; assay: Antiproliferative activity against human Ramos cells assessed as reduction in cell growth incubated for 48 hrs by MTS assay; type: functional, cell-based

In the case of `C=CC(=O)Nc1cccc(Nc2nc(Nc3ccc(OCCSC(=S)NCc4cccnc4)cc3)ncc2F)c1`, the Activity [1] is reported as “Dose-dependent effect” and the Activity [2] is reported as “Dose-dependent effect”.

From ChEMBL document CHEMBL4346765, “Design, synthesis and biological evaluation of novel dithiocarbamate-substituted diphenylaminopyrimidine derivatives as BTK inhibitors” (Bioorg Med Chem, 2019)
